Reference: PMC6152638, “Anti-Inflammatory Phenolic Acid Esters from the Roots and Rhizomes of Notopterygium incisium and Their Permeability in the Human Caco-2 Monolayer Cell Model” (Molecules : A Journal of Synthetic Chemistry and Natural …, 2017)

Legend:
[1] = Transport in the human intestinal Caco-2 cell monolayer model; type: in vitro ADME; settings: ratio of Papp BL→AP to Papp AP→BL
Procedure: For confluence and differentiation, cells were seeded at a density of 1 × 10^5 cells/cm^2 into 12-well Transwell plates (insert diameter 12 mm, pore size 3.0 μm, membrane growth area 1.12 cm^2, Costar® #3402) and were allowed to grow for 21 days before the permeation experiment. On Day 21, the monolayers with TEER values >500 Ω·cm^2 were qualified for the transport experiment. The transport study was initiated by the careful removal of the culture medium from AP and BL side of the inserts. Caco-2 monolayers were rinsed twice with pre-warmed HBSS and were incubated by pre-warmed HBSS for 30 min at 37 °C. Stock solutions of test phenolic acid esters were prepared in DMSO and diluted to 50 µM with HBSS. […] Samples were collected from the inserts, then frozen, lyophilized, redissolved in MeOH, and injected into HPLC system for quantitative analysis.
The Papp values were calculated as the following equation:Papp = (dQ/dt) × (1/A) × (1/C0) (cm/s)(1) where dQ/dt is the rate of the appearance of the test compound on the receiver compartment (μmol/s), C0 is the initial test compound concentration on the donor compartment (μmol/mL), and A is the surface area of Caco-2 monolayer (cm^2).

RAW264.7 cells = assay: MTT cytotoxicity assay in RAW264.7 cells; settings: 3.125–100 μM; viability less than 95% of control considered toxic

For `O=C(OCc1ccccc1)c1ccccc1O` [Compound 2, benzylsalicylate], the efflux ratio at 90 min, 50 µM [1] was 0.75 and the “cytotoxicity (MTT)” value (RAW264.7 cells) was “no toxicity”.
